In IntAct's records for PubMed 35512704:

B1: RAC-alpha serine/threonine-protein kinase (Homo sapiens), P31749 (parent)
chain: MSDVAIVKEGWLHKRGEYIKTWRPRYFLLKNDGTFIGYKERPQDVDQREAPLNNFSVAQCQLMKTERPRPNTFIIRCLQWTTVIERTFHVETPEEREEWTTAIQTVADGLKKQEEEEMDFRSGSPSDNSGAEEMEVSLAKPKHRVTMNEFEYLKLLGKGTFGKVILVKEKATGRYYAMKILKKEVIVAKDEVAHTLTENRVLQNSRHPFLTALKYSFQTHDRLCFVMEYANGGELFFHLSRERVFSEDRARFYGAEIVSALDYLHSEKNVVYRDLKLENLMLDKDGHIKITDFGLCKEGIKDGATMKTFCGTPEYLAPEVLEDNDYGRAVDWWGLGVVMYEMMCGRLPFYNQDHEKLFELILMEEIRFPRTLGPEAKSLLSGLLKKDPKQRLGGGSEDAKEIMQHRFFAGIVWQHVYEKKLSPPFKPQVTSETDTRYFDEEFTAQMITITPPDQDDSMECVDSERRPHFPQFSYSASGTA

Variants of: B1
Settings: with rictr_human RICTOR

Variant | effect of a mutation on the interaction
E17K | causing an interaction

Variants of: B1
Settings: with rl11_human RPL11

Variant | effect of a mutation on the interaction
E17K | causing an interaction

Variants of: B1
Settings: with rl5_human RPL5

Variant | effect of a mutation on the interaction
E17K | causing an interaction

Variants of: B1
Settings: with rptor_human RPTOR

Variant | effect of a mutation on the interaction
E17K | causing an interaction

Variants of: B1
Settings: with runx1_human RUNX1

Variant | effect of a mutation on the interaction
E17K | causing an interaction

Variants of: B1
Settings: with sdha_human SDHA

Variant | effect of a mutation on the interaction
E17K | causing an interaction

Variants of: B1
Settings: with setb1_human SETDB1

Variant | effect of a mutation on the interaction
E17K | causing an interaction

Variants of: B1
Settings: with skp2_human SKP2

Variant | effect of a mutation on the interaction
E17K | causing an interaction

Variants of: B1
Settings: with snf5_human SMARCB1

Variant | effect of a mutation on the interaction
E17K | causing an interaction

Variants of: B1
Settings: with smuf1_human SMURF1, Q9HCE7

Variant | effect of a mutation on the interaction
E17K | causing an interaction

Variants of: B1
Settings: with stk38_human STK38, Q15208

Variant | effect of a mutation on the interaction
E17K | causing an interaction

Variants of: B1
Settings: with eloc_human ELOC

Variant | effect of a mutation on the interaction
E17K | causing an interaction

Variants of: B1
Settings: with tead4_human TEAD4, Q15561

Variant | effect of a mutation on the interaction
E17K | causing an interaction

Variants of: B1
Settings: with tnr14_human TNFRSF14, Q92956

Variant | effect of a mutation on the interaction
E17K | causing an interaction

Variants of: B1
Settings: with tpx2_human TPX2, Q9ULW0

Variant | effect of a mutation on the interaction
E17K | causing an interaction

Variants of: B1
Settings: with tsc2_human TSC2, P49815

Variant | effect of a mutation on the interaction
E17K | causing an interaction

Variants of: B1
Settings: with tshr_human TSHR

Variant | effect of a mutation on the interaction
E17K | causing an interaction

Variants of: B1
Settings: with vhl_human VHL

Variant | effect of a mutation on the interaction
E17K | causing an interaction

Variants of: B1
Settings: with wee1_human WEE1, P30291

Variant | effect of a mutation on the interaction
E17K | causing an interaction

Variants of: B1
Settings: with wnk1_human WNK1, Q9H4A3

Variant | effect of a mutation on the interaction
E17K | causing an interaction

Variants of: B1
Settings: with wwtr1_human WWTR1

Variant | effect of a mutation on the interaction
E17K | causing an interaction

Variants of: B1
Settings: with arrb2_human ARRB2

Variant | effect of a mutation on the interaction
E17K | increasing interaction strength

Variants of: B1
Settings: with atm_human ATM

Variant | effect of a mutation on the interaction
E17K | increasing interaction strength

Variants of: B1
Settings: with aurkb_human AURKB

Variant | effect of a mutation on the interaction
E17K | increasing interaction strength

Variants of: B1
Settings: with bard1_human BARD1, Q99728

Variant | effect of a mutation on the interaction
E17K | increasing interaction strength

Variants of: B1
Settings: with bcor_human BCOR

Variant | effect of a mutation on the interaction
E17K | increasing interaction strength

Variants of: B1
Settings: with chd1l_human CHD1L

Variant | effect of a mutation on the interaction
E17K | increasing interaction strength

Variants of: B1
Settings: with ch3l1_human CHI3L1, P36222

Variant | effect of a mutation on the interaction
E17K | increasing interaction strength

Variants of: B1
Settings: with e2f2_human E2F2, Q14209

Variant | effect of a mutation on the interaction
E17K | increasing interaction strength

Variants of: B1
Settings: with epha7_human EPHA7, Q15375

Variant | effect of a mutation on the interaction
E17K | increasing interaction strength

Variants of: B1
Settings: with ezh2_human EZH2, Q15910

Variant | effect of a mutation on the interaction
E17K | increasing interaction strength

Variants of: B1
Settings: with fgf19_human FGF19, O95750

Variant | effect of a mutation on the interaction
E17K | increasing interaction strength

Variants of: B1
Settings: with fgfp1_human FGFBP1

Variant | effect of a mutation on the interaction
E17K | increasing interaction strength

Variants of: B1
Settings: with gata1_human GATA1, P15976

Variant | effect of a mutation on the interaction
E17K | increasing interaction strength

Variants of: B1
Settings: with gna11_human GNA11, P29992

Variant | effect of a mutation on the interaction
E17K | increasing interaction strength

Variants of: B1
Settings: with gna13_human GNA13, Q14344

Variant | effect of a mutation on the interaction
E17K | increasing interaction strength

Variants of: B1
Settings: with mcl1_human MCL1

Variant | effect of a mutation on the interaction
E17K | increasing interaction strength

Variants of: B1
Settings: with myc_human MYC

Variant | effect of a mutation on the interaction
E17K | increasing interaction strength

Variants of: B1
Settings: with ikba_human NFKBIA

Variant | effect of a mutation on the interaction
E17K | increasing interaction strength

Variants of: B1
Settings: with pdcd1_human PDCD1, Q15116

Variant | effect of a mutation on the interaction
E17K | increasing interaction strength

Variants of: B1
Settings: with ppard_human PPARD

Variant | effect of a mutation on the interaction
E17K | increasing interaction strength

Variants of: B1
Settings: with aapk2_human PRKAA2, P54646

Variant | effect of a mutation on the interaction
E17K | increasing interaction strength

Variants of: B1
Settings: with rictr_human RICTOR
Remark: another data set of the same source

Variant | effect of a mutation on the interaction
E17K | increasing interaction strength

Variants of: B1
Settings: with rl11_human RPL11
Remark: another data set of the same source

Variant | effect of a mutation on the interaction
E17K | increasing interaction strength

Variants of: B1
Settings: with rl5_human RPL5
Remark: another data set of the same source

Variant | effect of a mutation on the interaction
E17K | increasing interaction strength

Variants of: B1
Settings: with sdha_human SDHA
Remark: another data set of the same source

Variant | effect of a mutation on the interaction
E17K | increasing interaction strength

Variants of: B1
Settings: with sin1_human MAPKAP1, Q9BPZ7

Variant | effect of a mutation on the interaction
E17K | increasing interaction strength

Variants of: B1
Settings: with skp2_human SKP2
Remark: another data set of the same source

Variant | effect of a mutation on the interaction
E17K | increasing interaction strength

Variants of: B1
Settings: with smuf1_human SMURF1, Q9HCE7
Remark: another data set of the same source

Variant | effect of a mutation on the interaction
E17K | increasing interaction strength

Variants of: B1
Settings: with tnr14_human TNFRSF14, Q92956
Remark: another data set of the same source

Variant | effect of a mutation on the interaction
E17K | increasing interaction strength

Variants of: B1
Settings: with tsc2_human TSC2, P49815
Remark: another data set of the same source

Variant | effect of a mutation on the interaction
E17K | increasing interaction strength

Variants of: B1
Settings: with pk3cb_human PIK3CB

Variant | effect of a mutation on the interaction
E17K | increasing interaction strength
